Assay results as given in PMC10060577, “Synthesis and physicochemical characterization of acyl myricetins as potential anti-neuroexocytotic agents” (Scientific Reports, 2023).

What was measured:
PC-12 cells = assay: Neutral red uptake (NRU) cytotoxicity assay; assay type: cell-based; settings: 12 h incubation
Method: PC-12 cells, obtained from Korean Cell Line Bank (KCLB, Seoul, Korea), were cultured in media containing 84% (v/v) RPMI 1640 medium, 10% (v/v) heat-inactivated horse serum, 5% (v/v) heat-inactivated FBS, and 1% (v/v) antibiotic-antimycotic (100×) solution, under humidified conditions (37 °C, 5% CO2). The culture medium was refreshed every other day. Prior to further experiments, the viability of the cells in passages 1-5 was assessed using the trypan blue exclusion test. Harvested PC-12 cells (~ 80% confluency per well) were seeded into 96-well plates coated with type I-collagen and grown in the culture media for one day (37 °C, 5% CO2). Cells were treated with media containing the acyl […] incubated for 12 h. The media were aspirated, and cells were then incubated for 2 h with 0.33% (w/v) neutral red dissolved in the media. After the incubation, the neutral red media were carefully withdrawn, and cells were rinsed twice with PBS at 37 °C and dried for 1 h. Next, neutral red contained in the dried cells was extracted and solubilized with a solution of 50% (v/v) ethanol, 49% (v/v) DDW, and 1% (v/v) acetic acid, by incubating for 10 min. Absorbance of the neutral red-containing solution at 540 nm was recoded using the Synergy H1. Cell viability was determined based on the absorbance of treated cells compared to that of untreated cells (without acyl […]).

[1] = Determination of 1-octanol/water partition coefficients (logP); assay type: physicochemical; settings: for logP: 1-octanol/DDW, 25 °C
Method: Values for logP were determined to quantify the lipophilicity or hydrophilicity of the separated acyl myricetins, using the previously reported method with slight modifications. After the addition of 1-octanol (500 μL) into 2 mL micro-tubes containing 1 mg of the separated acyl myricetins, the micro-tubes were vortexed for 1 min, followed by sonication (bath-type) for 5 min, and then 500 μL of DDW was added to the tubes. Next, the mixed solutions in the tubes were vortexed again for 5 min and phase-separated by centrifugation (3000 relative centrifugal force for 10 min at 25 °C). The 40 μL of upper layer (1-octanol) and 100 μL of lower layer (DDW) were collected and diluted with 1.96 mL of 1-octanol and 100 μL of DMSO, respectively. The solutes dissolved in the upper and lower layers were quantified based on the standard curves obtained from the UV/Vis-light absorbance spectra (250‒600 nm) using a microplate reader (Synergy H1; BioTek Instruments Inc., VT, USA; measuring interval of 3 nm, at 25 °C). Finally, the logP values were calculated as log(coctanol/cDDW), where coctanol and cDDW are the concentrations of the solutes in the upper and lower layers, respectively.

Substance	CC50 (PC-12 cells) [µM]	logP [1]	times more lipophilic than free myricetin ([1]; based on logP) [fold]	fold more lipophilic than MP1 ([1]; based on logP) [fold]	fold more lipophilic than MP2 ([1]; based on logP) [fold]
dipropionyl-myricetin [MP2]	58.4 ± 1.6	2.42 ± 0.23	12.0	–	–
monopropionyl-myricetin [MP1]	54.6 ± 0.6	2.21 ± 0.16	7.4	–	–
monooctanoyl-myricetin [MO1]	59 ± 1.4	2.76 ± 0.29	26.3	3.5	2.2
